molecular target: EGFR T790M/L858R (Homo sapiens (Human), UniProt P00533, L858R/T790M); assay: Omnia assay, EGFR (T790M/L858R) active enzyme; conditions: biochemical, WT EGFR vs EGFR T790M/L858R

SMILES	Ratio WT/mutant
C=CC(=O)Nc1cccc(Nc2nc(Nc3ccc(N4CCOCC4)cc3OC)ncc2Cl)c1 [Compound I-15, N-(3-(5-chloro-2-(2-methoxy-4-morpholinophenylamino)pyrimidin-4-ylamino)phenyl)acrylamide]	>15
C=CC(=O)Nc1cccc(Nc2nc(Nc3ccc(N4CCN(C(C)=O)CC4)cc3OC)ncc2Br)c1 [Compound I-40, N-(3-(2-(4-(4-acetylpiperazin-1-yl)-2-methoxyphenylamino)-5-bromopyrimidin-4-ylamino)phenyl)acrylamide]	>20
C=CC(=O)Nc1cccc(Nc2nc(Nc3ccc(N4CCCN(C(=O)OC(C)(C)C)CC4)cc3OC)ncc2C(F)(F)F)c1 [Compound I-44, tert-butyl 4-(4-(4-(3-acrylamidophenylamino)-5-(trifluoromethyl)pyrimidin-2-ylamino)-3-methoxyphenyl)-1,4-diazpane-1-carboxylate]	>50
C=CC(=O)Nc1cccc(Oc2nc(Nc3ccc(N4CCN(C(=O)CC(C)(C)C)CC4)cc3OC)ncc2Cl)c1 [Compound I-23, N-(3-(5-chloro-2-(4-(4-(3,3-dimethylbutanoyl)piperazin-1-yl)-2-methoxyphenylamino)pyrimidin-4-yloxy)phenyl)acrylamide]	>25
C=CC(=O)Nc1cccc(Nc2nc(Nc3ccc(N4CCN(C(=O)CO)CC4)cc3OC(F)F)ncc2C(F)(F)F)c1 [Compound I-31, N-(3-(2-(2-(difluoromethoxy)-4-(4-(2-hydroxyacetyl)piperazin-1-yl)phenylamino)-5-(trifluoromethyl)pyrimidin-4-ylamino)phenyl)acrylamide]	1
C=CC(=O)Nc1cccc(Nc2nc(Nc3ccc(N4CCOCC4)cc3OC(F)F)ncc2C(F)(F)F)c1 [Compound I-14, N-(3-(2-(2-(difluoromethoxy)-4-morpholinophenylamino)-5-(trifluoromethyl)pyrimidin-4-ylamino)phenyl)acrlamide]	>25
C=CC(=O)Nc1cccc(Oc2nc(Nc3ccc(N4CCCOCC4)cc3OC)ncc2Cl)c1 [Compound I-37, N-(3-(5-chloro-2-(2-methoxy-4-(1,4-oxazepan-4-yl)phenylamino)pyrimidin-4-yloxy)phenyl)acrylamide]	>25
C=CC(=O)Nc1cccc(Nc2nc(Nc3ccc(N4CCN(C(C)=O)CC4)cc3OC(F)F)ncc2C(F)(F)F)c1 [Compound I-32, N-(3-(2-(4-(4-acetylpiperazin-1-yl)-2-(difluoromethoxy)phenylamino)-5-(trifluoromethyl)pyrimidin-4-ylamino)phenyl)acrylamide]	>1
C=CC(=O)Nc1cccc(Nc2nc(Nc3ccc(N4CCCOCC4)cc3OC)ncc2C(F)(F)F)c1 [Compound I-38, N-(3-(2-(2-methoxy-4-(1,4-oxazepan-4-yl)phenylamino)-5-(trifluoromethyl)pyrimidin-4-ylamino)phenyl)acrylamide]	>50
C=CC(=O)Nc1cccc(Oc2nc(Nc3ccc(N4CCN(S(C)(=O)=O)CC4)cc3OC)ncc2C(F)(F)F)c1 [Compound I-22, N-(3-(2-(2-methoxy-4-(4-(methylsulfonyl)piperazin-1-yl)phenylamino)-5-(trifluoromethyl)pyrimidin-4-yloxy)phenyl)acrylamide]	>50
C=CC(=O)Nc1cccc(Oc2nc(Nc3ccc(N4CCN(C(=O)OC(C)(C)C)CC4)cc3OC(F)(F)F)ncc2Cl)c1 [Compound I-47, tert-butyl 4-(4-(4-(3-acrylamidophenoxy)-5-chloropyrimidin-2-ylamino)-3-(trifluoromethoxy)phenyl)piperazine-1-carboxylate]	>50
C=CC(=O)Nc1cccc(Oc2nc(Nc3ccc(N4CCOCC4)cc3OC(F)F)ncc2Cl)c1 [Compound I-36, N-(3-(5-chloro-2-(2-(difluoromethoxy)-4-morpholinophenylamino)pyrimidin-4-yloxy)phenyl)acrylamide]	>25
C=CC(=O)Nc1cccc(Nc2nc(Nc3ccc(N4CCN(C(=O)NC)CC4)cc3OC)ncc2C(F)(F)F)c1 [Compound I-28, 4-(4-(4-(3-acrylamidophenylamino)-5-(trifluoromethyl)pyrimidin-2-ylamino)-3-methoxyphenyl)-N-methylpiperazine-1-carboxamide]	>10
C=CC(=O)Nc1cccc(Oc2nc(Nc3ccc(N4CCN(S(C)(=O)=O)CC4)cc3OC)ncc2Cl)c1 [Compound I-26, N-(3-(5-chloro-2-(2-methoxy-4-(4-(methylsulfonyl)piperazin-1-yl)phenylamino)pyrimidin-4-yloxy)phenyl)acrylamide]	>25
C=CC(=O)Nc1cccc(Oc2nc(Nc3ccc(N4CCN(C(=O)NC)CC4)cc3OC)ncc2C(F)(F)F)c1 [Compound I-21, 4-(4-(4-(3-acrylamidophenoxy)-5-(trifluoromethyl)pyrimidin-2-ylamino)-3-methoxyphenyl)-N-methylpiperazine-1-carboxamide]	>35

— US11096942B2, “Heterocyclic compounds and uses thereof” (Celgene CAR LLC, priority 2010, dated 2021)
